From patent US5547845A (Duke University, priority 1994, dated 1996)

Amino acid sequences for entries named in this document (tags omitted).
UniProt P21728, whole entry: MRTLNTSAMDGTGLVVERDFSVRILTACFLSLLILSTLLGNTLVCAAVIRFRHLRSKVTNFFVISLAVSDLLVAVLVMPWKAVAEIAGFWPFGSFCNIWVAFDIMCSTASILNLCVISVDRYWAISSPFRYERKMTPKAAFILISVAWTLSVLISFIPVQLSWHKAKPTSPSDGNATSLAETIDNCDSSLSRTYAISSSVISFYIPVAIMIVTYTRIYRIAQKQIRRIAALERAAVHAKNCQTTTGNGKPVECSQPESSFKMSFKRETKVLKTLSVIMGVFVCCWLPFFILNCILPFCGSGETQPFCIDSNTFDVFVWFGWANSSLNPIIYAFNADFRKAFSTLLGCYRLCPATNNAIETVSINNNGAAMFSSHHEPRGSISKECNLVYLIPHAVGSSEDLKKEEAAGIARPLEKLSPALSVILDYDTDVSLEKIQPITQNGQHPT

Target: human D1 dopamine receptor (clone HGL26) (Homo sapiens, UniProt P21728)
Test: Adenylyl cyclase activity in membranes of mouse fibroblasts [L-M(TK^-)] expressing HGL26
Format: biochemical
Conditions: SKF38393 and quinpirole, 1 μM each

**Q.** For `CCCN1CCC[C@@H]2Cc3n[nH]cc3C[C@H]21` [quinpirole], which “stimulation of adenylyl cyclase activity (in words)” value is on record?
**A.** Its value is “ineffective”.
